# Binding of CDR-mutated scFvs to a peptide of the spike HR2 region

Values reported by Engelhart et al. 2022, doi:10.1038/s41597-022-01779-4 (FLAb copy).

Target peptide (SARS-CoV-2 spike, HR2 region): PDVDLGDISGINAS

Parent: Ab-91, a human scFv built as VL, a (GGGGS)3 linker, VH. Only the CDRs of the heavy chain vary.
VL: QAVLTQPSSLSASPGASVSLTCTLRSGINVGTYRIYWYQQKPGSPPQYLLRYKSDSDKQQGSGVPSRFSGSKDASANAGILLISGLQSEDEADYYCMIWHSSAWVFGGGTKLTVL
VH: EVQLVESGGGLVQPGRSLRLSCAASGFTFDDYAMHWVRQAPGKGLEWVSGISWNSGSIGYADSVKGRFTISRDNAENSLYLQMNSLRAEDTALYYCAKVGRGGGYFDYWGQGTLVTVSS

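Variants in AAYL51 differ from the parent at up to three CDR positions; double and triple changes were sampled at random. In AlphaSeq, yeast of one mating type display the scFv and yeast of the other type display the target. Mating (16 h, 30 °C) was followed by selection of diploids and sequencing of their barcodes. Each replicate has its own calibration line, from reference interactions of the BCL2 family. The assay was run in three technical replicates.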

Variants are written as CDR1, CDR2 and CDR3 of the heavy chain (limits as in the source). Parent: GFTFDDYAMH, GISWNSGSIGYADSVK, VGRGGGYFDY. The read-out is the apparent dissociation constant on a log10 scale (nM): the lower, the stronger. Replicates are averaged; those with no signal do not enter the mean. A pair that was not seen in that replicate is written "n.d."; this usually means weak binding, but a binder can also be missed. For reference, the parent read 1.86 as the reference entry and 0.88 as a member of this library. Three control strains display no target. For library AAYL51, 21% of the pairings with them gave a signal, with a median of 4.54 and one signal in twenty below 3.26, so weak values seen in few replicates may be background. Also given: how often the same scFv was detected with the empty control strains, with their mean in brackets.

CDR-H1 | CDR-H2 | CDR-H3 | log10 Kd (nM) by replicate | log10 Kd (nM), mean | empty controls
GFTFDDYAMF | GISWNSYSIGYADSVK | VGRGRGYFDY | 2.27 1.80 1.54 | 1.87 | 4 of 9 (5.00)
GFTFDQYAMH | GISWNSGSIGYADSVK | VGRGGGYCDY | n.d. 4.97 n.d. | 4.97 | 4 of 9 (4.34)
GCTFDDYSMH | GISWNSGSIGYADSVK | VTRGGGYFDY | 1.80 2.88 1.22 | 1.97 | 0 of 9
GFTFDDYAMH | WISWNSGSDGYADAVK | VGRGGGYFDY | n.d. 5.66 n.d. | 5.66 | 2 of 9 (4.04)
GFTFDGYAMH | GISWNSGFIGYADSVK | VGRGHGYFDY | n.d. n.d. n.d. | n.d. | 0 of 9
GFTFDDYAMH | GISWNSISSGYADSVK | VHRGGGYFDY | n.d. n.d. n.d. | n.d. | 0 of 9
GFTFDDYSMH | GIEWNSGSIGYADSVK | VERGGGYFDY | n.d. 3.83 n.d. | 3.83 | 3 of 9 (4.06)
GFYFKDYAMH | GISWNSGSIGYADSVK | VGRGGGYFDA | n.d. n.d. n.d. | n.d. | 3 of 9 (3.92)
GFTFDDNAMH | GISWNSGSIGYADHVK | VGQGGGYFDY | 3.50 n.d. 1.39 | 2.45 | 1 of 9 (2.16)
GHTFDDIAMH | GISWNSGSIGYIDSVK | VGRGGGYFDY | 3.40 n.d. n.d. | 3.40 | 2 of 9 (3.47)
GFTIDDYAMH | GISWNSGSIGYASSQK | VGRGGGYFDY | 6.31 5.95 n.d. | 6.13 | 2 of 9 (4.19)
GFTFDDYAMH | TILWNSGSRGYADSVK | VGRGGGYFDY | n.d. n.d. n.d. | n.d. | 0 of 9
GFTFTDYAMH | FISWNSGTIGYADSVK | VGRGGGYFDY | 6.24 5.21 4.53 | 5.33 | 7 of 9 (4.90)
GFTFDDFAMH | GIEWNSGSIGYADSVK | VGRGGGYWDY | 3.83 n.d. n.d. | 3.83 | 1 of 9 (4.18)
GFTFDDYAMH | FISWNSNSIGYADSVK | VGRGGTYFDY | n.d. n.d. n.d. | n.d. | 1 of 9 (3.45)
GFTFDDYAML | GISWNSGSIHYADSVK | HGRGGGYFDY | 4.50 n.d. n.d. | 4.50 | 3 of 9 (5.04)
GFTFDDYIAH | GISWNSGSIGYQDSVK | VGRGGGYFDY | n.d. 4.06 n.d. | 4.06 | 3 of 9 (5.19)
GFTFDDYRIH | GISWWSGSIGYADSVK | VGRGGGYFDY | n.d. n.d. n.d. | n.d. | 0 of 9
GFTFDDYAMH | GISWNSGSIGYADSVK | VLRGHGPFDY | n.d. n.d. n.d. | n.d. | 0 of 9
GFTFDDYAMC | PISWNSGSIGYADSVK | VGRGDGYFDY | n.d. n.d. n.d. | n.d. | 0 of 9
GFTFDDYAMH | GISWNSGSIGYADSVK | RGRGGGWFDY | 2.85 3.38 3.49 | 3.24 | 3 of 9 (4.46)
GFTFDDYAMH | GISWNSGSWRYADSVQ | VGRGGGYFDY | n.d. 5.73 4.46 | 5.10 | 2 of 9 (4.15)
GFTFDDYADH | GISWNDGSIGWADSVK | VGRGGGYFDY | 3.50 n.d. n.d. | 3.50 | 1 of 9 (2.74)
GFTFDDYAMH | GASWNSGSIGYADSVL | VGRGGGYFDV | 1.59 2.65 2.49 | 2.24 | 0 of 9
GFTFDPYAMH | GISWNSGSLGYACSVK | VGRGGGYFDY | 4.53 n.d. 5.52 | 5.02 | 2 of 9 (4.97)
FFTFDDYAMH | GISWNSGSYGYADSVK | VGRGGGYFDY | n.d. n.d. n.d. | n.d. | 1 of 9 (3.73)
GFTFDDYAMH | GISWNSGSIGYAISVK | VTRGGGKFDY | n.d. n.d. n.d. | n.d. | 0 of 9
GFTFDFYAMH | GISWNSGSIGMDDSVK | VGRGGGYFDY | n.d. n.d. n.d. | n.d. | 1 of 9 (3.89)
GFTFDDYAMH | GISWNSGSIGYADSVK | VGRGGGFTDY | 1.35 1.33 0.47 | 1.05 | 2 of 9 (4.90)
GFTRLDYAMH | GISWNSGSIGPADSVK | VGRGGGYFDY | n.d. n.d. n.d. | n.d. | 2 of 9 (4.73)
GFTFDDYAMH | GISWNAGSDGYCDSVK | VGRGGGYFDY | 1.38 1.18 1.18 | 1.25 | 1 of 9 (3.12)
GFTFDDQAMQ | GWSWNSGSIGYADSVK | VGRGGGYFDY | n.d. n.d. n.d. | n.d. | 0 of 9
IFTFDDYAMH | GISWNSGSIGYADSVK | VGRGGGQNDY | 4.85 6.25 5.23 | 5.44 | 8 of 9 (5.40)
GFQFVDYAMH | GISWMSGSIGYADSVK | VGRGGGYFDY | n.d. n.d. 3.13 | 3.13 | 0 of 9
GFTFDDMAMH | GISWNSGSKGYADSVK | VGRGGGYFDC | 2.80 2.13 1.03 | 1.99 | 0 of 9
GFTFDDYAMH | GISKNSGSIGYASSVV | VGRGGGYFDY | 2.83 n.d. n.d. | 2.83 | 1 of 9 (4.63)
GFTFDDYAMH | GISWNSHSISNADSVK | VGRGGGYFDY | 5.45 n.d. 5.09 | 5.27 | 3 of 9 (4.07)
SFTFDDYAMH | GISYNSGSIGYADSAK | VGRGGGYFDY | n.d. n.d. n.d. | n.d. | 0 of 9
GFTFDDYAMH | GIIWNSVSIGYADSVK | VGRGGGYTDY | n.d. n.d. n.d. | n.d. | 1 of 9 (3.52)
GFRFDDYAMH | FISWNSGSIGYADSVK | VGRGGGIFDY | 3.43 5.70 n.d. | 4.57 | 1 of 9 (4.38)
GFTFDDYAMH | GGSWNVGSIGYADSVV | VGRGGGYFDY | 4.53 4.86 5.29 | 4.89 | 8 of 9 (5.07)
GFTFDDYAMH | MISWNSGSIGYADSVK | VGRGGGYFDA | n.d. n.d. n.d. | n.d. | 0 of 9
GFTFDDYAMH | GRSWNSGSYGYADSVK | VPRGGGYFDY | 4.43 4.07 n.d. | 4.25 | 6 of 9 (4.22)
GVTFDDYAMH | GISWNSGSIGYADSVK | VGRGGGYFDE | 3.82 4.37 4.83 | 4.34 | 3 of 9 (3.88)
GFTFDDPAMH | GISWESGSIGYADSVK | VGRGGGYFDE | n.d. n.d. n.d. | n.d. | 0 of 9
GFTFDDYAMH | GGSWNSGSIGYADSVI | VGRGGGYPDY | n.d. 5.86 n.d. | 5.86 | 4 of 9 (4.55)

A selection of 7 entries from above:

| CDR-H1 | CDR-H2 | CDR-H3 | log10 Kd (nM) by replicate | log10 Kd (nM), mean | empty controls |
|---|---|---|---|---|---|
| GFTFDFYAMH | GISWNSGSIGMDDSVK | VGRGGGYFDY | n.d. n.d. n.d. | n.d. | 1 of 9 (3.89) |
| GFTFDDYAMH | GGSWNVGSIGYADSVV | VGRGGGYFDY | 4.53 4.86 5.29 | 4.89 | 8 of 9 (5.07) |
| GFTFDDYAMH | GISWNAGSDGYCDSVK | VGRGGGYFDY | 1.38 1.18 1.18 | 1.25 | 1 of 9 (3.12) |
| GFTFTDYAMH | FISWNSGTIGYADSVK | VGRGGGYFDY | 6.24 5.21 4.53 | 5.33 | 7 of 9 (4.90) |
| GFTFDDYRIH | GISWWSGSIGYADSVK | VGRGGGYFDY | n.d. n.d. n.d. | n.d. | 0 of 9 |
| GFTFDDYIAH | GISWNSGSIGYQDSVK | VGRGGGYFDY | n.d. 4.06 n.d. | 4.06 | 3 of 9 (5.19) |
| GFTRLDYAMH | GISWNSGSIGPADSVK | VGRGGGYFDY | n.d. n.d. n.d. | n.d. | 2 of 9 (4.73) |